# Test results as given in patent US20220168221A1 (priority 2020, published 2022).
# Read-outs that look alike come from different tables or passages of the source.
# Assays:
# [1] = Stability of nikZ in aqueous solution (DiW); assay type: physicochemical
# [2] = Solubility and solution properties of nikZ; assay type: physicochemical
# [3] = Reported oral uptake and elimination of nikZ; assay type: in vivo, human; settings: frequent, small dosing
# [4] = pH 4; cited from earlier work
# [5] = cited from earlier work
# [6] = rat, cited from earlier work
# [7] = tested on: virulent B311 strain of Candida albicans; settings: rat, continuous IV infusion (33 mg/kg/day) or s.c. sustained release, 96 hours; cited from earlier work
# [8] = cited from earlier work; for elimination half-life: humans
# [9] = Human single ascending oral dose PK (Nix 2009)
smiles,measurement,setting,value
"C[C@@H]([C@H](N)C(=O)N[C@H](C(=O)O)[C@H]1O[C@@H](n2ccc(=O)[nH]c2=O)[C@H](O)[C@@H]1O)[C@H](O)c1ccc(O)cn1 [nikZ, nikkomycin Z]",degradation in solution,"[1]; 0.5-5 g/L, 25° C.",about 1 % per day
same,degradation in solution,[1]; after 4 days at 25° C.,about 4%
same,stability of solution,[1]; native nikZ HCl salt pH of about 3.35,stable for days
same,stability in aqueous solution,[1]; pH 7 and room temperature,only hours
same,degradation in solution,[1]; refrigerated,about 1 % per month
same,degradation to cleavage products NikCz and NikD by hplc,"[1]; samples as prepared for mouse dosing, 20-25° C.",about 1 % per day
same,solubility of highest IP dose preparation,"[2]; 1000 mg/kg BID dose, about 80 g/L in water",not fully soluble
same,saturation concentration,"[2]; when chilled, about pH 3.35",about 25 g/L
same,oral availability,[3],more than 50%
same,degradation in water (historical studies),[4],about 1 % per day
same,blood drug level at 12 hours,"[5]; human, 250 mg dose",200 ng/mL
same,AUC,"[5]; single dose of 2000 mg, human",40700 ng·h/mL
same,half-life,[5]; single human dose of 250 mg,about 2.5 hours
same,steady state plasma concentration,[6]; continuous IV maintenance 33 mg/kg/day after loading dose,about 170 ng/ml
same,peak plasma concentration,"[6]; continuous intravenous infusion, FIG. 2A",5 µg/mL
same,early peak plasma concentration,[6]; loading dose 20 mg/kg/hr for 2 hours,about 5000 ng/ml
same,survival,[7],100%
same,elimination half-life,[8],2.5 h
same,elimination half-life,[8]; listed as Nikkomycin Z,about 2.5 hours
same,route of elimination,[8]; in vivo,eliminated mostly by renal excretion
same,oral absorption efficiency,"[8]; many species, including human",10-15%
same,uptake from an oral dosage form,[8]; oral,15-25%
same,plasma half-life,[8]; roughly similar in mice and humans,about 2.5 hours
same,efficiency of oral uptake,[8]; single dose of 1000 mg,about 60%
same,net oral uptake,[8]; single dose of 1000 mg,7-12%
same,peak blood level,"[9]; 750 mg single dose, estimated from FIG. 2B",about 4.5 μg/ml
same,AUC extrapolated if uptake and clearance remained proportional to low dose values,[9]; single dose of 2000 mg,92.8 µg·h/mL
